# Yeast mating assay 2: variants of the scFv Ab-91

The measurements come from Engelhart et al. 2022 (doi:10.1038/s41597-022-01779-4) through the FLAb antibody collection.

The target is the same throughout: PDVDLGDISGINAS, from the HR2 region of SARS-CoV-2 spike.

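The parent was found by panning a naive human phage display library on the peptide. In library AAYL51, one, two or three CDR residues were substituted; doubles and triples were drawn at random. The scFvs were displayed on barcoded MATa yeast, the peptide on MATalpha yeast. Mating (16 h, 30 °C) was followed by selection of diploids and sequencing of their barcodes. Each replicate has its own calibration line, from reference interactions of the BCL2 family. Mating was done three times.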

Each scFv is VL, a (GGGGS)3 linker, VH, as in the parent Ab-91, and differs from it in the CDRs of the heavy chain only.
VL: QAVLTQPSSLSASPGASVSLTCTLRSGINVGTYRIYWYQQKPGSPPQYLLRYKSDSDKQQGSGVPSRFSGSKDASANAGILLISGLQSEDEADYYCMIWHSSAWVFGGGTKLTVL
VH: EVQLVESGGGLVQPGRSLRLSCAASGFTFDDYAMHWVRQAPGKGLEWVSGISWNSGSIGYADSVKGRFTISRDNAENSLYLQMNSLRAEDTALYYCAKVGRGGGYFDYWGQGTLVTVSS

The parent's heavy chain CDRs are GFTFDDYAMH, GISWNSGSIGYADSVK, VGRGGGYFDY; each variant's own CDRs replace them letter for letter. Every variant below is changed at M34 of the VH (sequential numbering). Kd is apparent (estimated from mating counts) and averaged on the log scale over replicates with a signal. Smaller is tighter. "not detected" means that the variant was in the library but no mating with the target was seen in any replicate; the authors take this as a sign of poor binding, and no number exists. As a blank, each scFv also met three strains without target: over library AAYL51, 21% of these pairings were detected, typically at 34 µM and seldom below 1.8 µM. In this assay the parent's reference entry averaged 72 nM; its copy inside this library read 7.5 nM.

CDR-H1	CDR-H2	CDR-H3	apparent Kd	replicates with signal
GFTFDDYAHH	GISWNSGSIGYADSVK	VGRGGGYFTY	310 µM	1/3
GFTFDDYARH	GISWNSGSIQYADSVK	VGRGGGMFDY	50 µM	1/3
GFTFDDYAKH	GISWNSGHIGYADSVK	VYRGGGYFDY	not detected	0/3
GFTFDDYAEH	LISWNSGSIGYADSVK	IGRGGGYFDY	66 µM	3/3
GFTFDDYAKH	YISWNSGSLGYADSVK	VGRGGGYFDY	not detected	0/3
GFTFDDYANQ	GISWNSASIGYADSVK	VGRGGGYFDY	2.7 µM	1/3
GFTFDDPATH	GISWNSGSIGYADSVK	VGRGGGYFNY	1.1 mM	2/3
GFTFDDYADH	GESWTSGSIGYADSVK	VGRGGGYFDY	not detected	0/3
GNTFDDYAAH	GISWNSGFIGYADSVK	VGRGGGYFDY	not detected	0/3
GFTFDDYAVH	GISWNSGSIGYATSVK	VGRGRGYFDY	not detected	0/3
GDTFDDYAKH	GISWNSGSIGYADSVK	VGRGGGMFDY	3.9 µM	2/3
GFTFDDFAIH	GISWNSGSIGYADSVK	VGRYGGYFDY	70 µM	1/3
GFTFDDWALH	GISWNSGSIGYADSVK	VGRGGGYFDY	50 µM	1/3
GFTFDDYACH	GISWMSGSIGYADSVK	VGRGGGYKDY	59 µM	2/3
GFTFDDYAFH	GISWNLGSIGYADSVK	VGRGGGYFDY	44 µM	2/3
GFTFDDYARH	QISWNFGSIGYADSVK	VGRGGGYFDY	580 µM	2/3
GFTFDDYEDY	GISWNSGSIGYADSVK	VGRGGGYFDY	not detected	0/3
GFTFDDYATH	GISWNSGSIGYADSVK	VGRGVGYFDC	300 µM	2/3
GFTFDDYADH	GISWNSGSICYADSVK	VGRGKGYFDY	not detected	0/3
GFTGDCYALH	GISWNSGSIGYADSVK	VGRGGGYFDY	70 µM	2/3
GFMFDDYAIH	GISWNSGSIGYADCVK	VGRGGGYFDY	29 µM	2/3
PFTFDDYANH	GISWNSGSIGYADGVK	VGRGGGYFDY	440 µM	2/3
GFTFDDYAGH	GISWFSGSIGYADSVK	VGRGGGYFPY	290 µM	1/3
GFTFDDYAAH	GISWNSGSIGYADSVK	VGIGGGGFDY	not detected	0/3
GFTFDDYACH	GIWWNSGSIGYADSVK	VGRGGGYFDY	110 µM	2/3
GFTFDDYAVV	GIKWNSGSIGYADSVK	VGRGGGYFDY	25 µM	1/3
GFTFDDYADH	GISWNSGSIGYADSVE	VGRGGGYFDE	not detected	0/3
GFTFDDYAHH	GISWNSGSIGYADSVK	VGRGGGYYDY	43 µM	1/3
GFTFDDYAEH	GISWNSGSIGYADHVK	VGRGFGYFDY	25 µM	1/3
GFTFYDYANH	GISWTSGSIGYADSVK	VGRGGGYFDY	20 µM	1/3
GFTFDDYAVH	GIIWNSGSIGYADSVK	VWRGGGYFDY	22 µM	1/3
VFTFDDYAVH	GISWNSGSIWYADSVK	VGRGGGYFDY	not detected	0/3
GFTFDDYAVH	GIYWNVGSIGYADSVK	VGRGGGYFDY	not detected	0/3
GFTFDDYAHH	GISWNSGSHGYADSVK	VGRGGGMFDY	89 µM	1/3
GFTFDCYSPH	GISWNSGSIGYADSVK	VGRGGGYFDY	not detected	0/3
GFTFDDYAKH	GISWNDGSIGYADSVK	VGRGGGYFDG	51 µM	2/3
GFTFDDTALH	GISWNSGSIGYADSVK	YGRGGGYFDY	3.3 mM	1/3
GFTFDDYANH	GISWNHGSIGYADHVK	VGRGGGYFDY	28 µM	2/3
GFTFDDYAYH	GISWNSGSIGYADSVK	VERGLGYFDY	not detected	0/3
GFTFDDYHCH	DISWNSGSIGYADSVK	VGRGGGYFDY	2.1 µM	1/3
GFTFDDYAQH	GISWNSGSIGYADSVK	TGCGGGYFDY	not detected	0/3
GFTFDDYAKE	GISWNWGSIGYADSVK	VGRGGGYFDY	880 µM	1/3
GFTFDDYAFH	GISWNSGSIGYTDSVK	VGRGGPYFDY	not detected	0/3
AFTFDDYAYH	GISWNSGSIGYADTVK	VGRGGGYFDY	not detected	0/3
GFTFDDYACH	GISWNSGSIGYASSVK	VGRGGMYFDY	44 µM	1/3
GFTFDDYADH	GISWNSCSIGYADFVK	VGRGGGYFDY	340 µM	3/3
GFTFDDYAHH	GISWDSGSIGYADSVK	VGRGHGYFDY	970 nM	2/3
GFTFDDYAIH	GISWPSGSIGYAWSVK	VGRGGGYFDY	4.5 µM	2/3
GCTFDDYAQH	GISWNSGSIGYADSVK	VGRGGGYFDY	11 µM	1/3
GFTFDDYAHK	GISWNSGSTGYADSVK	VGRGGGYFDY	2.6 nM	3/3
GFTFDDYAEH	GISWNSSSIGYADSVK	VGRGGGYFDM	not detected	0/3
GFTFDDYAKH	GISWRSGSIGYADSVN	VGRGGGYFDY	not detected	0/3
GFTFDDYAYH	GISWNSGSIGYADSVK	VLRGEGYFDY	88 µM	1/3
GFTFDDYANH	GMSWNSGSIGYADSVK	WGRGGGYFDY	not detected	0/3
CFTFDDYAFH	GIWWNSGSIGYADSVK	VGRGGGYFDY	190 µM	1/3
GFTFDDYANH	GISWNSGSWGYADSVA	VGRGGGYFDY	6.2 µM	1/3
EFTFDDYANH	GISWNSGSIGYAPSVK	VGRGGGYFDY	160 µM	3/3
GLTFDDYAEH	GISWNSGSIGYADSVK	CGRGGGYFDY	55 µM	2/3
GFTFDDYAIC	GISWNSGSIGYADSVK	TGRGGGYFDY	8.5 µM	2/3
GFTFDDYAHH	GISWNSGSILYADSVK	VGRGGGYFDY	26 µM	1/3
GFTFDDYANH	GISWNSGSIGYADSVD	VGIGGGYFDY	not detected	0/3
GFTFDDYAEH	GISQNSGSIGYADSVK	VGRGGGMFDY	not detected	0/3
GWTFDDYAEH	GISDNSGSIGYADSVK	VGRGGGYFDY	not detected	0/3
GFTPDDYALH	GISWNHGSIGYADSVK	VGRGGGYFDY	1.1 mM	2/3
GFTFDDYACH	GISWNSGSGGYADSSK	VGRGGGYFDY	120 µM	1/3

8 of these entries, quoted again:

CDR-H1	CDR-H2	CDR-H3	apparent Kd	replicates with signal
GFTFDDYAHH	GISWNSGSIGYADSVK	VGRGGGYYDY	43 µM	1/3
GFTFDDYAHK	GISWNSGSTGYADSVK	VGRGGGYFDY	2.6 nM	3/3
GFMFDDYAIH	GISWNSGSIGYADCVK	VGRGGGYFDY	29 µM	2/3
GCTFDDYAQH	GISWNSGSIGYADSVK	VGRGGGYFDY	11 µM	1/3
GFTFDDYARH	QISWNFGSIGYADSVK	VGRGGGYFDY	580 µM	2/3
GFTFDDYADH	GESWTSGSIGYADSVK	VGRGGGYFDY	not detected	0/3
GFTFDDYAVV	GIKWNSGSIGYADSVK	VGRGGGYFDY	25 µM	1/3
GFTFDDYAEH	GISWNSGSIGYADHVK	VGRGFGYFDY	25 µM	1/3